What is called IC50 is the point on the concentration scale where inhibition reaches its midpoint. Low readings indicate greater potency, high ones weaker potency. One may read the EC50 as the concentration needed to bring the measured effect to its halfway point.

By UniProt entry, the sequences of proteins in these tests, tags left out.
UniProt P30551, whole entry: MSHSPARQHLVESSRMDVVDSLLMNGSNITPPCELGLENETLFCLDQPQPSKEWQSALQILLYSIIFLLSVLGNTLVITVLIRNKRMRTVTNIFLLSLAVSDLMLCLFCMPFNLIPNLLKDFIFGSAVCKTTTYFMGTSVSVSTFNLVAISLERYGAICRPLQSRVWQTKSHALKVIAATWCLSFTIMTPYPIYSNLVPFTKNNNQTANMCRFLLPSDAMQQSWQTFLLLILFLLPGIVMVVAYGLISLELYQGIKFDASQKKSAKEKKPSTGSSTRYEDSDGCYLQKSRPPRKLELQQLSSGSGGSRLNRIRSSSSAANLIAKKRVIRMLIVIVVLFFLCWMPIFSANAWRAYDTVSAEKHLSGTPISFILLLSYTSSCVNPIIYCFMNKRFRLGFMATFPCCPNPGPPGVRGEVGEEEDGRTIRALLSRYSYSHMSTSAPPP

Molecules are shown by their SMILES.

Assay [1] deals with T1, Cholecystokinin receptor type A (Rattus norvegicus, UniProt P30551). The assay is described as follows: Displacement of [125I]CCK8 from rat CCK1 receptor expressed in CHO cells. In kind it is cell-based. The method, boiled down:
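Binding IC50 at the rat CCK1 receptor. Values are mean ± standard error of at least two independent experiments.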
In general terms: Loss of bound radioactivity is the signal in a displacement assay; it reports binding, not function.

The target of assay [2] is T1, Cholecystokinin receptor type A. Put plainly: Agonist activity at rat CCK1 receptor expressed in CHO cells assessed as induction of calcium release by FLIPR assay. It is filed as functional, cell-based. The method, boiled down:
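Calcium release was measured by FLIPR at the rat CCK1 receptor to give EC50. Values are mean ± standard error of at least two independent experiments.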

In turn, `CC(C)N(Cc1ccccc1)C(=O)CN1C(=O)[C@@H](Cc2c[nH]c3ccccc23)c2nnc(-c3ccccc3)n2-c2ccccc21` [CE-326597] had an IC50 in assay [1] of 12.2 nM. In addition, the EC50 in assay [2] is 446 nM.

Values taken from ChEMBL document CHEMBL1268842, “Discovery of N-benzyl-2-[(4S)-4-(1H-indol-3-ylmethyl)-5-oxo-1-phenyl-4,5-dihydro-6H-[1,2,4]triazolo[4,3-a][1,5]benzodiazepin-6-yl]-N-isopropylacetamide, an orally active, gut-selective CCK1 receptor agonist for the potential treatment of obesity” (Bioorg Med Chem Lett, 2010).
